In patent publication US20260199359A1 (INCYTE CORPORATION, priority 2021, published 2026):

Test: Apparent pH of solvent systems before API addition and of saturated supernatant
Format: physicochemical
Settings: for Vehicle pH: before API addition; for Supernatant pH: saturated with ruxolitinib phosphate
[1] = SSAG01 with 3.50% w/w of the named base
[2] = SSCR01 with 3.50% w/w of the named base
[3] = SSNA01 with 3.50% w/w of the named base

Structure (SMILES): OCCN(CCO)CCO
- Vehicle pH [1]: 10.31
- Supernatant pH [1]: 4.27
- Vehicle pH [2]: 9.63
- Supernatant pH [2]: 3.43
- Vehicle pH [3]: 9.11
- Supernatant pH [3]: 4.35
